The values that follow are results of earlier work, collected in article PMC11019746, “Illuminating Neuropeptide Y Y4 Receptor Binding: Fluorescent Cyclic Peptides with Subnanomolar Binding Affinity as Novel Molecular Tools” (ACS Pharmacology & Translational Science, 2024).

By UniProt entry, the sequences of proteins in these tests, tags left out.
UniProt P50391, whole entry: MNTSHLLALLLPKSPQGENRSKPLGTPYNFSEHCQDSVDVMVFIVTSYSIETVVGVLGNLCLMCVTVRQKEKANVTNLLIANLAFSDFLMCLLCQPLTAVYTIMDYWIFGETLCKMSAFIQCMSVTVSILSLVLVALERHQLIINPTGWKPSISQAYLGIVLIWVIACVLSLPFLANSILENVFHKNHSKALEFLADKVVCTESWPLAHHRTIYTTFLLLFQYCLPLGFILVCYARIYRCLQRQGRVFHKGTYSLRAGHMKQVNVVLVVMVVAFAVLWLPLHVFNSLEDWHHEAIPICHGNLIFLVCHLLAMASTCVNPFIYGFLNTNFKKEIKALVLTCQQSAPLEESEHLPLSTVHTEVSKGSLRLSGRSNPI
UniProt Q15761, whole entry: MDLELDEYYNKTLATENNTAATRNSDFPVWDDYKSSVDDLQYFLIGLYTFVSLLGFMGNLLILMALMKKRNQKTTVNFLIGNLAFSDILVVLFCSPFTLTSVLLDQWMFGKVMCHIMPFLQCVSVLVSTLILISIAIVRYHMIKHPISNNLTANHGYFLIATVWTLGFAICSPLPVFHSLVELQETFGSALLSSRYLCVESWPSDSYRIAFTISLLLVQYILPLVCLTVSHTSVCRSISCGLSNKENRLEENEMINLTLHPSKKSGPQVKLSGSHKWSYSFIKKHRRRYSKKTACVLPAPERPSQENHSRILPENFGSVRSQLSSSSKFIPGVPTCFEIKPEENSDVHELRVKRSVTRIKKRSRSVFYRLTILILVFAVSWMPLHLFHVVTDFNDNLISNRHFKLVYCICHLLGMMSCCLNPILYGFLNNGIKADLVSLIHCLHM
UniProt P25929, whole entry: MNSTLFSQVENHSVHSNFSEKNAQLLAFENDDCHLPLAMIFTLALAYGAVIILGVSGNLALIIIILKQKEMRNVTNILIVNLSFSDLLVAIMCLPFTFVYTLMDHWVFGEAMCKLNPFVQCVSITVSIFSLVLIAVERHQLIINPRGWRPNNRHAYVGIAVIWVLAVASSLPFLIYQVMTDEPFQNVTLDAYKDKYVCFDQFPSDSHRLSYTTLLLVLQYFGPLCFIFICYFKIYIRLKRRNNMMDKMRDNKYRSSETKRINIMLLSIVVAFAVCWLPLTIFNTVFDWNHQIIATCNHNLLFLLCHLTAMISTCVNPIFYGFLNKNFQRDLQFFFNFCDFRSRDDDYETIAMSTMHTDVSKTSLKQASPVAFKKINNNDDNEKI
UniProt P49146, whole entry: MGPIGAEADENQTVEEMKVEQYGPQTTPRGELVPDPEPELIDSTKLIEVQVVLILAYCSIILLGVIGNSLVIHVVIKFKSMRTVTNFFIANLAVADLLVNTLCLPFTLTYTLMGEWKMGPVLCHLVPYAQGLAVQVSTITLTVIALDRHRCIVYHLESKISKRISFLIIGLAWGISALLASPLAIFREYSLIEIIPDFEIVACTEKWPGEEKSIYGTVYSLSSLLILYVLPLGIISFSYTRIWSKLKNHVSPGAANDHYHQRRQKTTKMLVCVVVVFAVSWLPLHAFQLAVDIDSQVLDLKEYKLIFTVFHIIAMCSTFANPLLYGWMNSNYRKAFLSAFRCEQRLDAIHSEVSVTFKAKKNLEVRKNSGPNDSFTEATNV

Marks after values point to notes of the source that are not given here.

Broadly, the Ki is a dissociation constant, usually derived from enzyme kinetics or from competition with a known ligand.

In one data set the target is hY4R (Homo sapiens, UniProt P50391). To be noted: relative to 1 μM hPP (100%); cited from earlier work.
Another data set deals with hY5R (Homo sapiens, UniProt Q15761). To be noted: cited from earlier work.
In a further data set the target is hY1R (Homo sapiens, UniProt P25929). To be noted: cited from earlier work.
In a further data set the target is hY2R (Homo sapiens, UniProt P49146). To be noted: cited from earlier work; for Ki: read-out: Ki hY2R.

As for `CC(C)C[C@H](NC(=O)[C@@H]1CCCNC(=N)NC(=O)NCCCCNC(=O)CCC(=O)N[C@@H](CCCNC(=N)N)C(=O)N[C@@H](Cc2ccc(O)cc2)C(=O)N1)C(=O)N[C@@H](CCCNC(=N)N)C(=O)N[C@@H](Cc1ccc(O)cc1)C(N)=O`, on hY4R, the “Ca2+-aequorin Emax ± SEM” value is recorded as 81 ± 1 ^c %. For the same compound, on hY5R, the “pKi hY5R” value was 5.5. Besides, the inhibitory constant (Ki) on hY5R (read-out: Ki hY5R) was greater than 3 µM; at hY1R (read-out: Ki hY1R), greater than 3 µM; on hY2R, greater than 10 µM. The “pKi hY1R” value on hY1R is reported as 5.5. The “pKi hY2R” value at hY2R is 5.
In the case of `CC(C)C[C@H](NC(=O)[C@@H]1CCCNC(N)=NC(=O)NCCCCNC(=O)[C@H](NC(=O)CCCN)CC(=O)N[C@@H](CCCNC(=N)N)C(=O)N[C@@H](Cc2ccc(O)cc2)C(=O)N1)C(=O)N[C@@H](CCCNC(=N)N)C(=O)N[C@@H](Cc1ccc(O)cc1)C(N)=O` (single isomer, unassigned), the “pKi hY5R” value on hY5R is listed as 6. In addition, on hY1R, the “pKi hY1R” value is on record as 6. Also, at hY2R, the “pKi ± SEM hY2R” value is recorded as 6.04 ± 0.07 and the Ki was 0.95 µM.
